Measurements taken from patent US20240409614A1 (DANMARKS TEKNISKE UNIVERSITET, published 2024).

Molecular target: elastase (EnzChek Elastase Assay kit, Invitrogen)
Experiment: cell-based or functional assay

Row | Binder | IC50 before treatment with H2O2 (anti-elastase activity) | IC50 after treatment with H2O2 (anti-elastase activity)
1 | A1AT-M351V/M358V (other) EDPQGDAAQKTDTSHHDQDHPTFNKITPNLAEFAFSLYRQLAHQSNSTNIFFSPVSIATAFAMLSLGTKADTHDEILEGLNFNLTEIPEAQIHEGFQELLRTLNQPDSQLQLTTGNGLFLSEGLKLVDKFLEDVKKLYHSEAFTVNFGDTEEAKKQINDYVEKGTQGKIVDLVKELDRDTVFALVNYIFFKGKWERPFEVKDTEEEDFHVDQVTTVKVPMMKRLGMFNIQHCKKLSSWVLLMKYLGNATAIFFLPDEGKLQHLENELTHDIITKFLENEDRRSASLHLPKLSITGTYDLKSVLGQLGITKVFSNGADLSGVTEEAPLKLSKAVHKAVLTIDEKGTEAAGAVFLEAIPVSIPPEVKFNKPFVFLMIEQNTKSPLFMGKVVNPTQK | 50.5 nM | 
2 | A1AT-M351V/M358V after treatment with H2O2 (other, treated with 20 mM H2O2 for one hour at room temperature; oxidised residues not determined in the filing) EDPQGDAAQKTDTSHHDQDHPTFNKITPNLAEFAFSLYRQLAHQSNSTNIFFSPVSIATAFAMLSLGTKADTHDEILEGLNFNLTEIPEAQIHEGFQELLRTLNQPDSQLQLTTGNGLFLSEGLKLVDKFLEDVKKLYHSEAFTVNFGDTEEAKKQINDYVEKGTQGKIVDLVKELDRDTVFALVNYIFFKGKWERPFEVKDTEEEDFHVDQVTTVKVPMMKRLGMFNIQHCKKLSSWVLLMKYLGNATAIFFLPDEGKLQHLENELTHDIITKFLENEDRRSASLHLPKLSITGTYDLKSVLGQLGITKVFSNGADLSGVTEEAPLKLSKAVHKAVLTIDEKGTEAAGAVFLEAIPVSIPPEVKFNKPFVFLMIEQNTKSPLFMGKVVNPTQK |  | 45.6 nM
3 | A1AT-M351V/M358I (other) EDPQGDAAQKTDTSHHDQDHPTFNKITPNLAEFAFSLYRQLAHQSNSTNIFFSPVSIATAFAMLSLGTKADTHDEILEGLNFNLTEIPEAQIHEGFQELLRTLNQPDSQLQLTTGNGLFLSEGLKLVDKFLEDVKKLYHSEAFTVNFGDTEEAKKQINDYVEKGTQGKIVDLVKELDRDTVFALVNYIFFKGKWERPFEVKDTEEEDFHVDQVTTVKVPMMKRLGMFNIQHCKKLSSWVLLMKYLGNATAIFFLPDEGKLQHLENELTHDIITKFLENEDRRSASLHLPKLSITGTYDLKSVLGQLGITKVFSNGADLSGVTEEAPLKLSKAVHKAVLTIDEKGTEAAGAVFLEAIPISIPPEVKFNKPFVFLMIEQNTKSPLFMGKVVNPTQK | 50.8 nM | 
4 | A1AT-M351V/M358I after treatment with H2O2 (other, treated with 20 mM H2O2 for one hour at room temperature; oxidised residues not determined in the filing) EDPQGDAAQKTDTSHHDQDHPTFNKITPNLAEFAFSLYRQLAHQSNSTNIFFSPVSIATAFAMLSLGTKADTHDEILEGLNFNLTEIPEAQIHEGFQELLRTLNQPDSQLQLTTGNGLFLSEGLKLVDKFLEDVKKLYHSEAFTVNFGDTEEAKKQINDYVEKGTQGKIVDLVKELDRDTVFALVNYIFFKGKWERPFEVKDTEEEDFHVDQVTTVKVPMMKRLGMFNIQHCKKLSSWVLLMKYLGNATAIFFLPDEGKLQHLENELTHDIITKFLENEDRRSASLHLPKLSITGTYDLKSVLGQLGITKVFSNGADLSGVTEEAPLKLSKAVHKAVLTIDEKGTEAAGAVFLEAIPISIPPEVKFNKPFVFLMIEQNTKSPLFMGKVVNPTQK |  | 47.8 nM
5 | A1AT-M351I/M358V (other) EDPQGDAAQKTDTSHHDQDHPTFNKITPNLAEFAFSLYRQLAHQSNSTNIFFSPVSIATAFAMLSLGTKADTHDEILEGLNFNLTEIPEAQIHEGFQELLRTLNQPDSQLQLTTGNGLFLSEGLKLVDKFLEDVKKLYHSEAFTVNFGDTEEAKKQINDYVEKGTQGKIVDLVKELDRDTVFALVNYIFFKGKWERPFEVKDTEEEDFHVDQVTTVKVPMMKRLGMFNIQHCKKLSSWVLLMKYLGNATAIFFLPDEGKLQHLENELTHDIITKFLENEDRRSASLHLPKLSITGTYDLKSVLGQLGITKVFSNGADLSGVTEEAPLKLSKAVHKAVLTIDEKGTEAAGAIFLEAIPVSIPPEVKFNKPFVFLMIEQNTKSPLFMGKVVNPTQK | 51.7 nM | 
6 | A1AT-M351I/M358V after treatment with H2O2 (other, treated with 20 mM H2O2 for one hour at room temperature; oxidised residues not determined in the filing) EDPQGDAAQKTDTSHHDQDHPTFNKITPNLAEFAFSLYRQLAHQSNSTNIFFSPVSIATAFAMLSLGTKADTHDEILEGLNFNLTEIPEAQIHEGFQELLRTLNQPDSQLQLTTGNGLFLSEGLKLVDKFLEDVKKLYHSEAFTVNFGDTEEAKKQINDYVEKGTQGKIVDLVKELDRDTVFALVNYIFFKGKWERPFEVKDTEEEDFHVDQVTTVKVPMMKRLGMFNIQHCKKLSSWVLLMKYLGNATAIFFLPDEGKLQHLENELTHDIITKFLENEDRRSASLHLPKLSITGTYDLKSVLGQLGITKVFSNGADLSGVTEEAPLKLSKAVHKAVLTIDEKGTEAAGAIFLEAIPVSIPPEVKFNKPFVFLMIEQNTKSPLFMGKVVNPTQK |  | 54.2 nM
